Data on one compound can be found in BindingDB's records for doi:10.1016/S0960-894X(97)00333-8 (Gilead Sciences, 1997).

The test has as its target Hemagglutinin (Influenza A virus (A/Shandong/9/1993(H3N2)), UniProt Q6DM53). The note with it: pH 6.5; 37 °C.

The structures appear in SMILES notation.

In turn, `CC(=O)N[C@H]1[C@H]([C@H](O)[C@H](O)CO)OC(C(=O)O)=C[C@@H]1N=C(N)N` [(2R,3R,4S)-4-carbamimidamido-3-acetamido-2-[(1R,2R)-1,2,3-trihydroxypropyl]-3,4-dihydro-2H-pyran-6-carboxylic acid] returned an IC50 of 5 nM.
